“Also recorded” adds a separate entry of the source.
Columns and labels:
[1] = system: murine IL-6 production by ST2 stromal cells; assay: IL-6 production by ST2 stromal cells in contact with MM.1S cells (murine IL-6 ELISA); assay type: cell-based
[2] = system: osteoclast formation in murine bone marrow cultures
[3] = system: adhesion of MM.1S cells to ST2 marrow stromal cells; assay: Adhesion of myeloma cells to stromal cells; assay type: cell-based, human MM.1S / murine ST2
[4] = system: β1 integrin mRNA expression in MM.1S human Myeloma cells; assay: RT-PCR analysis of β1 integrin mRNA expression in MM.1S myeloma cells cocultured with ST2 stromal cells; assay type: cell-based

## C[C@@H]1CN(Cc2ccc(F)cc2)CCN1C(=O)COc1ccc(Cl)cc1NC(N)=O [BX471, (2R)-1-((4-chloro-2-(ureido)phenoxy)methyl)carbonyl-2-methyl-4-(4-fluorobenzyl)piperazine]
[1]
  IL-6 production by ST2 marrow stromal cells in contact with MM.1S myeloma cells: significantly inhibited
[2]
  Murine TRAP (+) OCL formation: dose-dependently inhibited
  osteoclast formation stimulated with MIP-1A: significantly inhibited
[3]
  Adhesion of MM.1S cells to ST2 cells: significantly decreased
  adhesion of MM.1S cells to ST2 marrow stromal cells: significantly inhibited
[4]
  β1 integrin mRNA expression increased by rhMIP-1a: significantly decreased; also recorded: downregulated

Source: patent US20050192282A1, “Chemokine inhibiting piperazine derivatives and their use to treat multiple myeloma” (Schering Aktiengesellschaft, priority 2004, published 2005)
